# Source: EP4840464A1, “FAK INHIBITOR AND PAN-RAS INHIBITOR” (dated 2026)
# Values joined by “and” are separate entries in the source; they are usually repeats but may differ in a detail not shown here. Identical values can stand only once.
# Experiments:
# Capan1 cells = assay: In vitro proliferation inhibition on RAS mutant cell line Capan1 (CCK-8); settings: 120 hours; for Percentage (%) of cell viability: Capan1, duplicate columns
# [1] = system: Capan1 human pancreatic cancer subcutaneous xenograft model; assay: In vivo anti-tumor efficacy in Capan1 subcutaneous xenograft model
# [2] = system: CT26 colorectal cancer subcutaneous xenograft model; assay: In vivo antitumor efficacy in CT26 subcutaneous xenograft model
# [3] = compared with the blank control group
structure (smiles),measurement,setting,value
COc1cc(C(=O)NC2CCN(C)CC2)c(F)cc1Nc1ncc(C(F)(F)F)c(Oc2cccc3c2C(=O)N(C)C3)n1,Percentage (%) of cell viability,"Capan1 cells; drug concentration 0.015242 µM, 0.015242 µM",110% and 126%
same,Percentage (%) of cell viability,"Capan1 cells; drug concentration 1.234568 µM, 1.23457 µM",125% and 137%
same,Percentage (%) of cell viability,"Capan1 cells; drug concentration 3.703704 µM, 3.7037 µM",128% and 134%
same,IC50,"Capan1 cells; Capan1 cells, monotherapy",18.4 µM
same,Weight change rate (%),[1]; (W20-W0) / W0*100%,7.5%
same,anti-tumor effects,[1]; [3],significant anti-tumor effects
same,Tumor volume (day 0),"[1]; day 0, at grouping, Mean ± SEM, IN10018 25 mg/kg PO QD, RMC6236 PO QD (10 or 3/6 mg/kg, see doubts)",258.0±34.4 mm^3
same,Weight (Day 0),"[1]; day 0, Mean ± SEM",21.7 ± 0.3 g
same,Tumor volume (day 20),"[1]; day 20, IN10018 25 mg/kg PO QD, RMC6236 PO QD (10 or 3/6 mg/kg, see doubts)",1945.7±174.8 mm^3
same,Weight (Day 20),"[1]; day 20, Mean ± SEM",23.1 ± 0.7 g
same,Survival,[1]; number of animals surviving on day 12 / number of animals surviving on day 0 (so in the source),2/3
same,Weight change rate (%),[2]; (W12-W0) / W0*100%,8.3%
same,TGItv (%),"[2]; calculated based on data from day 12, vs. blank control group, RMC6236 10 mg/kg, anti-mPD-1 10 mg/kg, IN10018 25 mg/kg",40.4%
same,anti-tumor effects,[2]; [3],significant anti-tumor effects
same,Tumor volume (day 0),"[2]; day 0, at grouping, Mean ± SEM, RMC6236 10 mg/kg PO QD, anti-mPD-1 10 mg/kg IP BIW, IN10018 25 mg/kg PO QD",94.1±9.8 mm^3
same,Weight (Day 0),"[2]; day 0, Mean ± SEM",21.6 ± 0.4 g
same,Weight (Day 12),"[2]; day 12, Mean ± SEM",23.4 ± 0.5 g
same,Tumor volume (day 12),"[2]; day 12, Mean ± SEM, RMC6236 10 mg/kg PO QD, anti-mPD-1 10 mg/kg IP BIW, IN10018 25 mg/kg PO QD",1212.1±228.8 mm^3
same,Survival,[2]; number of animals surviving on day 12 / number of animals surviving on day 0,6/6
